## Binding of CDR-mutated scFvs to a peptide of the spike HR2 region

The measurements come from Engelhart et al. 2022 (doi:10.1038/s41597-022-01779-4) through the FLAb antibody collection.

Target peptide (SARS-CoV-2 spike, HR2 region): PDVDLGDISGINAS

Parent scFv Ab-14: VH joined to VL by a (GGGGS)3 linker. Changes lie in the light chain CDRs alone.
VH: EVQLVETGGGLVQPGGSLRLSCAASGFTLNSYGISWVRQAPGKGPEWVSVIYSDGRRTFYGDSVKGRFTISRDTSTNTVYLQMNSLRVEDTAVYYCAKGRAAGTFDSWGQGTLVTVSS
VL: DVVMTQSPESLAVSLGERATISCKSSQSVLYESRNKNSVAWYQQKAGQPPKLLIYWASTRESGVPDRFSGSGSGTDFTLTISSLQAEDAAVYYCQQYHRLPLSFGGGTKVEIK

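In library AAYL50, one, two or three CDR residues were substituted; doubles and triples were drawn at random. The assay is AlphaSeq: two haploid yeast populations carry antibody and antigen on their surface. Pairs that bind mate more often; barcode pairs of the diploids are counted by sequencing. Each replicate has its own calibration line, from reference interactions of the BCL2 family. Mating was done three times.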

Variants are written as CDR1, CDR2 and CDR3 of the light chain (limits as in the source). Parent: KSSQSVLYESRNKNSVA, WASTRES, QQYHRLPLS. Numbers give log10(Kd / nM), so 0 is 1 nM and 3 is 1 µM. Smaller is tighter. Averages over replicates are reported, and they cover detected replicates only. Where no diploid with the target was found in any replicate, the entry reads "not detected": below detection, most likely a poor binder, though not proof of it.

| # | CDR-L1 | CDR-L2 | CDR-L3 | mean, log10 nM | detected |
|---|---|---|---|---|---|
| 1 | KSSQSVLYESRNKNSVA | WASTRES | GQYHRMPLS | not detected | 0/3 |
| 2 | KSSESVLYESRNKNSVA | WASTRES | QQYHRLPVS | 5.33 | 1/3 |
| 3 | KSLQSVLYESRNKNSVA | WHSTNES | QQYHRLPLS | not detected | 0/3 |
| 4 | KSCTSVLYESRNKNSVA | WESTRES | QQYHRLPLS | not detected | 0/3 |
| 5 | KSSQIVLYESRNKNSVA | WASTRES | QQYHRLMLW | not detected | 0/3 |
| 6 | KSSQHVLYESRNKESVA | WASTRES | QQYHRLPLF | not detected | 0/3 |
| 7 | KSSQSVYYESRNSNPVA | WASTRES | QQYHRLPLS | 1.07 | 3/3 |
| 8 | KSSQSVLYESRNKNNVA | WASTRES | QMYRRLPLS | 1.82 | 3/3 |
| 9 | KSSQSVLYCSRNKNSVA | WASTREG | QQYHALPLS | not detected | 0/3 |
| 10 | KSSESVLYESRNKNSVA | WASTRES | QQKHRLLLS | not detected | 0/3 |
| 11 | KSSQSVLYESRTKNSVA | WASTRES | QQYHSQPLS | 1.24 | 3/3 |
| 12 | KSSQSVYYEERNKNTVA | WASTRES | QQYHRLPLS | 2.17 | 3/3 |
| 13 | KSSWSVLYENRNKYSVA | WASTRES | QQYHRLPLS | 2.05 | 3/3 |
| 14 | ISSQSVSYESRNWNSVA | WASTRES | QQYHRLPLS | 1.35 | 3/3 |
| 15 | WSSQSVLYESSNKNSVA | NASTRES | QQYHRLPLS | 0.24 | 3/3 |
| 16 | KVSQSVLYESRNKNCVK | WASTRES | QQYHRLPLS | 4.76 | 3/3 |
| 17 | KSSQSVDYMSRNKNSVA | WASPRES | QQYHRLPLS | not detected | 0/3 |
| 18 | KSSQSMLYELENKNSVA | WASTRES | QQYHRLPLS | 0.52 | 3/3 |
| 19 | ESSQSVLYESRNKKSVA | WASTRES | QQGHRLPLS | 1.82 | 1/3 |
| 20 | KSSQSVLYGSRNKMSVQ | WASTRES | QQYHRLPLS | not detected | 0/3 |
| 21 | KSDQSVLYESRNKNSVA | WASTCES | QQYIRLPLS | 2.21 | 3/3 |
| 22 | KSSYSVLYESRNKNSVA | WASTRWS | QQGHRLPLS | 2.67 | 3/3 |
| 23 | KLSQSVLYESRNKNSVA | WASTRES | QIYHVLPLS | 3.21 | 2/3 |
| 24 | KFSQSVLYESRPKNSVA | WANTRES | QQYHRLPLS | 1.02 | 3/3 |
| 25 | KTSQSVLSISRNKNSVA | WASTRES | QQYHRLPLS | 1.35 | 3/3 |
| 26 | KVSQSVLYESRNLNSVA | WASTRES | QQYHRLPLS | 0.14 | 3/3 |
| 27 | KSSQKVLYESRNKNSVE | WASTRES | QQYHRLKLS | 6.24 | 1/3 |
| 28 | KSSQSVLYESRNKNSVA | WASTRLS | QQYHRDPES | 4.66 | 3/3 |
| 29 | KSSQSELYESRNKNSVA | WNPTRES | QQYHRLPLS | not detected | 0/3 |
| 30 | GSSQSVLYMSRNVNSVA | WASTRES | QQYHRLPLS | not detected | 0/3 |
| 31 | KSSQSVLYTSRNKNSVA | WASYHES | QQYHRLPLS | not detected | 0/3 |
| 32 | KSSASVLYISRPKNSVA | WASTRES | QQYHRLPLS | 3.89 | 3/3 |
| 33 | KSSQSVLYESRNKNSVA | WASTRES | QHKHRLPAS | not detected | 0/3 |
| 34 | CSSQSVLYESRNWNSCA | WASTRES | QQYHRLPLS | not detected | 0/3 |

Continued, with the values leading:

| # | mean, log10 nM | detected | CDR-L1 | CDR-L2 | CDR-L3 |
|---|---|---|---|---|---|
| 35 | 0.04 | 3/3 | KSSQMVLYESRNKNSVA | QASTRES | EQYHRLPLS |
| 36 | not detected | 0/3 | KSSQSVLYESRNKNSVA | WASDRES | QQYHRHELS |
| 37 | not detected | 0/3 | KSSQSVLYESRNYNSVA | WASTRES | QWKHRLPLS |
| 38 | not detected | 0/3 | KSWQSVLYESRNKNSVA | WISTRVS | QQYHRLPLS |
| 39 | 2.33 | 3/3 | KSSQSVHYESRNKNSLA | RASTRES | QQYHRLPLS |
| 40 | 1.58 | 3/3 | KSSQSVLYESGFKKSVA | WASTRES | QQYHRLPLS |
| 41 | 1.07 | 3/3 | KSSQSMLYESRNKNSVA | WASTRPS | QQYHRMPLS |
| 42 | not detected | 0/3 | KSSQSVLYESRNKNSVA | WHHTRES | QQYHRLSLS |
| 43 | 0.12 | 3/3 | KSSQSVLRESDNKNSVA | WASTREV | QQYHRLPLS |
| 44 | not detected | 0/3 | KSSQSVLYESRNKNSVA | WVSTRES | SQYTRLPLS |
| 45 | not detected | 0/3 | KSSQSVLEESRNKNSVA | WASTPES | QQYHRLPLS |
| 46 | 5.54 | 1/3 | KSSQSVLYPSRNKNSVA | WASTRED | QQYHRLPSS |
| 47 | 5.11 | 2/3 | KSSQSVLYESRNKNSVA | WISTRES | QQYHRLPLV |
| 48 | 1.42 | 3/3 | KSSQDVLYESRGKNSVA | WASSRES | QQYHRLPLS |
| 49 | not detected | 0/3 | KSSQSVLYESRNKNSVA | WASTRES | QIYHRLRLS |
| 50 | not detected | 0/3 | KSSQSVLYYSRNKNSVI | WASTRAS | QQYHRLPLS |
| 51 | 0.00 | 3/3 | QSSQSVWMESRNKNSVA | WASTRES | QQYHRLPLS |
| 52 | 1.09 | 3/3 | KSSQSVLYESRRKNSVA | WASTRES | YQYHRLHLS |
| 53 | 3.68 | 3/3 | KSSQSVLYESANKNSVA | WASTRES | QRYHRQPLS |
| 54 | 2.04 | 3/3 | KSSQSVLYERRNKNSVA | WASTRES | CQYHRLRLS |
| 55 | 2.26 | 3/3 | KMSQSVLYESYNKNSVA | WASTRES | QQYHRGPLS |
| 56 | 2.16 | 3/3 | KSSQSVLYESINKNSVA | WASTREC | QQYQRLPLS |
| 57 | 3.18 | 1/3 | KSMQSVLYESRNKNSVA | WASTRES | QRYHRLPSS |
| 58 | not detected | 0/3 | KSSQSVLYESRNKNFEP | WASTRES | QQYHRLPLS |
| 59 | 3.78 | 3/3 | KSSQSLLYEHRNWNSVA | WASTRES | QQYHRLPLS |
| 60 | 3.47 | 2/3 | KSSQSVLYESRNKNVVA | WASTMES | QQYHLLPLS |
| 61 | not detected | 0/3 | KSSQSVLDESRNKNSDA | WSSTRES | QQYHRLPLS |
| 62 | 3.78 | 1/3 | KSSQSPLYESRNKNSVD | WAFTRES | QQYHRLPLS |
| 63 | 2.89 | 2/3 | KSSQSVLYESRNHLSVA | WASTREI | QQYHRLPLS |
| 64 | not detected | 0/3 | KSSQQVLYECRNKNSVA | WACTRES | QQYHRLPLS |
| 65 | 4.34 | 1/3 | KSHQSVLYECCNKNSVA | WASTRES | QQYHRLPLS |
| 66 | not detected | 0/3 | KSSQSVLYESRNKNSVG | WASTRER | QMYHRLPLS |
| 67 | 1.16 | 3/3 | KSSQSVLYESRNKNSVA | QASTRES | QHYHRLVLS |
| 68 | 5.42 | 1/3 | KSSQSVLYESRNKNSVA | WASTREN | IQYHRLPLS |

A selection of 5 entries from above:

| CDR-L1 | CDR-L2 | CDR-L3 | mean, log10 nM | detected |
|---|---|---|---|---|
| KSSQSVYYEERNKNTVA | WASTRES | QQYHRLPLS | 2.17 | 3/3 |
| KSSQHVLYESRNKESVA | WASTRES | QQYHRLPLF | not detected | 0/3 |
| KSSESVLYESRNKNSVA | WASTRES | QQYHRLPVS | 5.33 | 1/3 |
| KSSQSVLYESRNKNSVA | WHHTRES | QQYHRLSLS | not detected | 0/3 |
| KSSQIVLYESRNKNSVA | WASTRES | QQYHRLMLW | not detected | 0/3 |

Parent in this assay: reference entry 0.65, copy in this library 1.68. Three control strains display no target. For library AAYL50, 18% of the pairings with them gave a signal, with a median of 4.19 and one signal in twenty below 2.99, so weak values seen in few replicates may be background.